# Results from PubChem BioAssay AID488847 (NMMLSC, 2010).
# Sequences of proteins named here, by UniProt entry; tags and fusion partners are left off.
# UniProt P25098, whole entry: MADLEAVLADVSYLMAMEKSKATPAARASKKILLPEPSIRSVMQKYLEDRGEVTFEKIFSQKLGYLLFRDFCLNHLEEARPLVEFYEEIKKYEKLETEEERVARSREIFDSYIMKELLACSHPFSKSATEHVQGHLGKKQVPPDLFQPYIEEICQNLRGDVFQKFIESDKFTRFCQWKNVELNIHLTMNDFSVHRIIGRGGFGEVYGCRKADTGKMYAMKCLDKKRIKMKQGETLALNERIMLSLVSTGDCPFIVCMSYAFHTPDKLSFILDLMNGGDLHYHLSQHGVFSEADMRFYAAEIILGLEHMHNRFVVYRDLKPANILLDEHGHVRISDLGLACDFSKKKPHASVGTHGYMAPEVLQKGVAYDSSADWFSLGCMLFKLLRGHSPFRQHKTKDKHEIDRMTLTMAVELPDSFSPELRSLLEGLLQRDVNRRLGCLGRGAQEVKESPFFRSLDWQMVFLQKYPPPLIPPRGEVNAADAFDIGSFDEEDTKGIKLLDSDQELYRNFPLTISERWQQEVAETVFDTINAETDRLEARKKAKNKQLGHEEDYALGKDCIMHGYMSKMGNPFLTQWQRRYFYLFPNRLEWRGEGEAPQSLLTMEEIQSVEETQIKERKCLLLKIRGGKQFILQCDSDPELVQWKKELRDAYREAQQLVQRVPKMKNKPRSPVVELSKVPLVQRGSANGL
# This is a selection; strong and weak results do not stand in their true shares. The source made the active and inactive calls.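 The calls were made as follows: active = inhibition of aptamer binding above 40%, roughly 3 SD of noise, on plates passing a quality check; inactive = the rest.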
# Biological target: Beta-adrenergic receptor kinase 1 (Homo sapiens) (UniProt P25098)
# Assay: compounds blocking aptamer binding on GRK2 – biochemical, human GRK2, bead flow cytometry, HTS, primary screen (AID 488847);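 as to inhibition of aptamer binding: median bead fluorescence of bound FAM aptamer so fluorescent compounds give negative values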
# Details: FAM-aptamer displacement from GRK2, at 10 µM; hits give high values
row,Structure (SMILES),inhibition of aptamer binding
1,O=C(OC1CN2CCC1CC2)c1ccc(Cl)cc1 (configuration not stated),inactive
2,O=[As](O)(O)c1cccnc1,inactive
3,COc1ccccc1OP(C)(=O)Nc1cccc(Br)c1 (configuration not stated),inactive: 2%
4,Cc1cccc(OCC(=O)OC2CN3CCC2CC3)c1 (configuration not stated),inactive
5,O=[As](O)(c1cccc(O)c1)c1cccc(O)c1,inactive
6,Cc1cc(C)cc(OP(C)(=O)Nc2ccc(C)cc2C)c1 (configuration not stated),inactive: 1%
7,CCOC(=O)c1ccc(NP(C)(=O)Oc2cc(C)cc(C)c2)cc1 (configuration not stated),inactive: 1%
8,Cc1cc(C)cc(OP(C)(=O)Nc2ccccn2)c1 (configuration not stated),inactive: 1%
9,CP(=O)(Nc1cccc(Br)c1)Oc1ccccc1 (configuration not stated),inactive: 1%
10,Cc1ccc(C)c(NP(C)(=O)Oc2ccccc2)c1 (configuration not stated),inactive: 0%
11,CCOP(=O)(Nc1cccc2ccccc12)OCC,inactive
12,O=C(O)c1cccc(Nc2c([N+](=O)[O-])cc([N+](=O)[O-])cc2[N+](=O)[O-])c1,inactive: 0%
13,CCOP1(=S)c2c(C)nn(CCC#N)c2N=C(c2ccccc2F)N1C (configuration not stated),inactive
14,O=P(Nc1nccs1)(Oc1ccccc1)Oc1ccccc1,inactive
15,CS(=O)(=O)c1cc([N+](=O)[O-])c2no[n+]([O-])c2c1,inactive
16,NC(=O)Nc1ccc([As](=O)(O)O)cc1,inactive
17,N#CCCN(C(=O)COC(=O)C(O)(c1ccccc1)c1ccccc1)c1ccc(F)cc1,inactive
18,CN(C(=O)Cc1ccccc1)[C@@H]1CC[C@]2(CCCO2)C[C@H]1N1CCCC1,inactive
19,CCOP1(=S)c2c(C)nn(CCC#N)c2N=C(c2ccc(F)cc2)N1C (configuration not stated),inactive
20,CC1=NCCc2c1[nH]c1ccccc21.O=[N+]([O-])c1cc([N+](=O)[O-])c(O)c([N+](=O)[O-])c1,inactive: 0%
21,CN(C(=O)Cc1ccc(Cl)c(Cl)c1)[C@H]1CC[C@@]2(CCCO2)C[C@@H]1N1CCCC1,inactive

row,Structure (SMILES),inhibition of aptamer binding
1,Cc1ccc(C(=O)OC2CN3CCC2CC3)cc1 (configuration not stated),inactive
2,COc1cc(C2NCCC3(OCCO3)C2(C)C)cc(OC)c1OC.O=[N+]([O-])c1cc([N+](=O)[O-])c(O)c([N+](=O)[O-])c1 (configuration not stated),inactive
3,CC1=C2N=C(C=C3N=C(C(C)=C4[N-][C@@](C)([C@@H]5N=C1[C@](C)(CCC(=O)NC[C@@H](C)OP(=O)([O-])O[C@H]1[C@@H](O)[C@@H](n6cnc7cc(C)c(C)cc76)O[C@@H]1CO)[C@H]5CC(N)=O)[C@@](C)(CC(N)=O)[C@@H]4CCC(N)=O)[C@@](C)(CC(N)=O)[C@@H]3CCC(N)=O)C(C)(C)[C@@H]2CCC(N)=O.[C-]#N.[Co+3],inactive: 5%
4,CN(C)C1(CNC(=O)c2ccc(S(C)(=O)=O)cc2)CCCCC1,inactive
5,O=[N+]([O-])c1cc([N+](=O)[O-])c(Nc2nnnn2CCO)c([N+](=O)[O-])c1,inactive: 0%
6,CCOC(=O)C(CC)C1=NC(C)(C)Cc2ccccc21.O=[N+]([O-])c1cc([N+](=O)[O-])c(O)c([N+](=O)[O-])c1 (configuration not stated),inactive: 0%
7,CN1CCCCC1COC(=O)C1(O)c2ccccc2CCc2ccccc21 (configuration not stated),inactive
8,COc1ccccc1OP(C)(=O)Nc1c(C)cccc1C (configuration not stated),inactive: 6%
9,O=P1(Nc2ncccn2)COc2ccccc2OC1,inactive
10,CCCOc1ccc(NP(C)(=O)Oc2ccc(Cl)cc2)cc1 (configuration not stated),inactive: 1%
11,CP(=O)(Nc1ccc(SC(F)(F)F)cc1)Oc1ccccc1 (configuration not stated),inactive: 0%
12,Nc1cccc([As](=O)(O)c2ccccc2)c1,inactive
13,O=P1(Nc2ccccn2)COc2ccccc2OC1,inactive
14,O=[N+]([O-])c1cc([N+](=O)[O-])c(-n2nnc3ccccc32)c([N+](=O)[O-])c1,inactive: 1%
15,CCOP(=O)(NC(=NC(C)c1ccccc1)NC(C)c1ccccc1)OCC (configuration not stated),inactive
16,CCOP(=O)(Nc1ccc(C)cn1)OCC,inactive
17,CN(CCCl)Cc1cc(Cl)c(NC2=NCCN2)c(Cl)c1,inactive
18,O=[N+]([O-])c1cc([N+](=O)[O-])c(-c2cnn(-c3ccccc3)c2)c([N+](=O)[O-])c1,inactive: 2%
19,COc1ccccc1CNC(=O)COC(=O)C(O)(c1ccccc1)c1ccccc1,inactive
20,CN(C(=O)Cc1ccc(Cl)c(Cl)c1)[C@@H]1CCCC[C@H]1N1CCCC1,inactive
21,CC(C)/C=N\N=C(\N)N[N+](=O)[O-],inactive

row,Structure (SMILES),inhibition of aptamer binding
1,Cc1nc2ccc3ccccc3c2s1.O=[N+]([O-])c1cc([N+](=O)[O-])c(O)c([N+](=O)[O-])c1,inactive: 2%
2,CP(=O)(Nc1ccc(SC(F)(F)F)cc1)Oc1ccc(Cl)cc1 (configuration not stated),inactive: 0%
3,Cc1cccc(C)c1OP(C)(=O)Nc1ccc(SC(F)(F)F)cc1 (configuration not stated),inactive: 0%
4,CP(=O)(Oc1ccccc1)OC(c1ccccc1)C(F)(F)F (configuration not stated),inactive: 1%
5,CP(=O)(NC(=O)Nc1ccccc1)Oc1ccccc1 (configuration not stated),inactive: 1%
6,O=C(COc1ccccc1)OC1CN2CCC1CC2 (configuration not stated),inactive
7,CCc1ccc(OP(C)(=O)N2CCN(c3ccc([N+](=O)[O-])cc3)CC2)cc1 (configuration not stated),inactive: 0%
8,Cc1cc(C)cc(OP(C)(=O)Nc2ccc(SC(F)(F)F)cc2)c1 (configuration not stated),inactive: 0%
9,O=C(Nc1ccncc1[N+](=O)[O-])c1ccc([N+](=O)[O-])cc1[N+](=O)[O-],inactive
10,O=C(OC1CN2CCC1CC2)c1cccc([N+](=O)[O-])c1 (configuration not stated),inactive
11,CCOP(C)(=S)SCC(=O)NC(C)C(=O)O (configuration not stated),inactive: 2%
12,O=[N+]([O-])c1cc([N+](=O)[O-])c(O)c([N+](=O)[O-])c1.c1ccc(Oc2ccncc2)cc1,inactive: 0%
13,CCOC(=O)c1ccc(NP(C)(=O)Oc2ccc(OC)cc2)cc1 (configuration not stated),inactive: 1%
14,CP(=O)(Nc1ccccn1)Oc1ccc(Cl)cc1 (configuration not stated),inactive: 0%
15,CP(=S)(Nn1cnnc1)Oc1ccccc1 (configuration not stated),inactive: 0%
16,CCOC(=O)Nc1cccc([As](=O)(O)O)c1,inactive
17,COc1ccccc1OP(C)(=O)Nc1ccccc1 (configuration not stated),inactive: 0%
18,CP(=O)(Nc1ccccc1Br)Oc1ccccc1 (configuration not stated),inactive: 0%
19,O=[N+]([O-])c1cc([N+](=O)[O-])c(Nc2cccnc2)c([N+](=O)[O-])c1,inactive: 0%
20,COc1cc(C(=O)NCC2(N3CCOCC3)CCCCC2)ccc1OCC(C)C,inactive
